{"source": "patent US20260385999A1", "about": "“GUT MICROBE DERIVED AROMATIC AMINO ACID METABOLITES FOR DETECTION AND TREATMENT OF DISEASE” (published 2026)", "origin": "cited, not measured here"}
{"system": "platelet function and thrombosis potential", "details": "previously reported"}
{"smiles": "Cc1ccc(O[C@@H]2O[C@H](C(=O)O)[C@@H](O)[C@H](O)[C@H]2O)cc1", "Effect on platelet function and thrombosis potential": "affect platelet function and thrombosis potential both in vitro and in vivo"}
{"smiles": "O=C(O)CNC(=O)Cc1ccccc1", "Effect on platelet function and thrombosis potential": "affect platelet function and thrombosis potential both in vitro and in vivo"}
{"smiles": "NC(=O)CC[C@H](NC(=O)Cc1ccccc1)C(=O)O", "Effect on platelet function and thrombosis potential": "affect platelet function and thrombosis potential both in vitro and in vivo"}
